Read-outs that look alike come from different tables or passages of the source.
What was measured:
[1] = molecular target: human thyrotropin receptor (TSHR), wild type, full length (human) (UniProt P16473); experiment: Scatchard, 125I-ligand, solubilised TSHR on tubes
[2] = molecular target: human thyrotropin receptor (TSHR), wild type, full length (human) (UniProt P16473); experiment: Scatchard, 125I-ligand, solubilised TSHR on tubes; remark: listed apart in the source

- Ka [1]: 6e+09 M⁻¹
- Ka [2]: 4.2e+09 M⁻¹
Substance: porcine TSH (RSR Ltd, 70 units per mg) (from UniProt P01219 25-120; P01224 21-132) (ligand; other documents disagree on this pair)
